The results in this text go back to patent US20240327375A1, “SUBSTITUTED HETEROBICYCLIC DERIVATIVES AS NEGATIVE ALLOSTERIC MODULATORS OF MGLU7 RECEPTOR” (priority 2021, published 2024).

The chains behind the UniProt entries cited, without tags or fusion partners. Residues count along the entry.
UniProt Q14831, 35-922 isoform 2 limits assumed: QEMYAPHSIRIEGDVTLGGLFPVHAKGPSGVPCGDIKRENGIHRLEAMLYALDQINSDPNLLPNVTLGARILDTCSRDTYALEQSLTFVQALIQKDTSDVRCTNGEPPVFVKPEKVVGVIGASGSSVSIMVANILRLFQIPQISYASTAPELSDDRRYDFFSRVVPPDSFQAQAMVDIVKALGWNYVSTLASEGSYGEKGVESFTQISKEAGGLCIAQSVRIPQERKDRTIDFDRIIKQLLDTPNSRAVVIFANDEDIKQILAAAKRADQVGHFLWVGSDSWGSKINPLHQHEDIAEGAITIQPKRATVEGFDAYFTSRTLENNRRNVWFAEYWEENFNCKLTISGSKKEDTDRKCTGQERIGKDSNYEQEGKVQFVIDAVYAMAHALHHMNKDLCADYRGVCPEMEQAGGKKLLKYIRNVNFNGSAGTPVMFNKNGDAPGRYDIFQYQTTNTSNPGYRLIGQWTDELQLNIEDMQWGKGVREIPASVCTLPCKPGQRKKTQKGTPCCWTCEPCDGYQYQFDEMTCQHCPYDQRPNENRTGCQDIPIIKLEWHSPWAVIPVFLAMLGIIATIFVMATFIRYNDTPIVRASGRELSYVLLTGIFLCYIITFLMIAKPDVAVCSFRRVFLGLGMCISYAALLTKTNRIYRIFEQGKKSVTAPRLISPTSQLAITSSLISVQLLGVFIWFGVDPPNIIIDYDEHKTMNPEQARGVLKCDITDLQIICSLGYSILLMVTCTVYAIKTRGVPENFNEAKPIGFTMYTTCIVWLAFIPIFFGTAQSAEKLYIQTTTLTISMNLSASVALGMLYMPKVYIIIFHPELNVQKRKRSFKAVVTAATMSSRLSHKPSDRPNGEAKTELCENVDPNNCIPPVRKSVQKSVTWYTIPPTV

The test addresses human mGlu7 (Homo sapiens, UniProt Q14831). Kind of test: mGlu7 assay on HEK-expressing human mGlu7: fluorescent cell-based Ca2+ mobilization (FLIPR384), inhibition of EC80 L-AP4 response. As to conditions: read-out: Ca^2+ Flux (mean IC50); HEK-293 cells expressing hmGlu7, EC80 L-AP4 stimulation; mean of at least three independent experiments in duplicate. The source says:
mGlu7 Assay on HEK-Expressing Human mGlu7
The cDNA encoding the human metabotropic glutamate 7 receptor (hmGlu7), (accession number NM_181874.2, NCBI Nucleotide database browser), was subcloned into an expression vector containing also the hygromycin resistance gene. In parallel, the cDNA encoding a G protein allowing redirection of the activation signal to intracellular calcium flux was subcloned into a different expression vector containing also the Puromycin resistance gene. Transfection of both these vectors into HEK293 cells with PolyFect reagent (Qiagen) according to supplier's protocol, and hygromycin and puromycin treatment allowed selection of antibiotic resistant cells which had integrated stably one or more copies of the plasmids. Positive cellular clones expressing hmGlu7 were identified in a functional assay measuring changes in calcium fluxes in response to glutamate and L-AP4 or known mGlu7 orthosteric antagonists.
HEK-293 cells expressing hmGlu7 were maintained in media containing DMEM, Fetal Bovine Serum (10%), Glutamax™ (2 mM), penicillin (100 units/mL), streptomycin (100 μg/mL), geneticin (100 μg/mL) and hygromycin-B (40 μg/mL) and puromycin (1 μg/mL) at 37° C. with 5% CO2 in a humidified atmosphere.
Fluorescent Cell Based- Ca^+ Mobilization Assay Human mGlu7 HEK-293 cells were plated out 24 hours prior to a fluorescent cell-based calcium mobilization assay using FLIPR^384 assay (Molecular Device, Sunnyvale, CA, USA) in black-walled, clear-bottomed, poly-L-ornithine-coated 384-well plates at a density of 25,000 cells/well in a glutamine/glutamate free DMEM medium containing fetal bovine serum (10%), penicillin (100 units/mL), streptomycin (100 μg/mL) and doxycyline (1 μg/ml) at 37° C. with 5% CO2 in a humidified atmosphere. […]
After 10 s of basal fluorescence recording, various concentrations of the compounds of the invention were added to the cells. Changes in fluorescence levels were first monitored for 180 s in order to detect any agonist activity of the compounds. […]

Take `COCCOc1cnc(-n2ncc3cc(-c4cccc(OC)c4C)ccc3c2=O)nc1`: the IC50 – broadly, the point on the concentration scale where inhibition reaches its midpoint – fell in the range of 100 to 1000 nM.
The same measure for `CN1CCc2c(-c3ccc4c(=O)n(-c5ncccc5F)ncc4c3)cccc21`: 100 to 1000 nM; for `COCc1ccc(-n2ncc3cc(-c4ccc(C)cc4C)ccc3c2=O)cc1`: 100 to 1000 nM.
